System: L1210
Settings: for enhancement in cytotoxic potency relative to (+)-N-Boc-CBI: relative to N-Boc-CBI (80 nM)

Substance	lower cytotoxicity compared to 25 [fold]	enhancement in cytotoxic potency relative to (+)-N-Boc-CBI [fold]
1-(Chloromethyl)-5-hydroxy-3-{[4-[4-(tert-Butoxycarbonylamino)-1-methylpyrrol-2-yl)carbonyl]amino-1-methylpyrrol-2-yl]carbonyl}-1,2-dihydrobenzo[e]indole [X10-Y10]	100	180
1-(Chloromethyl)-5-hydroxy-3-{[4-[4-(tert-Butoxycarbonylaminothiophen-2-yl)carbonyl]aminothiophen-2-yl]carbonyl}-1,2-dihydrobenzo[e]indole [X8-Y8]	–	275
